Earlier results as cited in patent publication US5064812A, “Metal complexes of N-acetyl-glucosaminyl-N-acetyl-muramoyl-L-alanyl-D-isoglutaminyl-(L)-mes o-diamino-pimelyl-(D-amide)-(L)-D-alanyl-D-alanine and their use in pharmaceuticals” (Sour Pliva, priority 1986, dated 1991).

Details: prior art literature

N-acetyl-glucosaminyl-N-acetyl-muramoyl-L-alanyl-D-isoglutaminyl-(L)-meso- diamino-pimelyl-(D-amide)-(L)-D-alanyl-D-alanine [PMG]
pyrogenicity: practically no toxicity or pyrogenicity | toxicity: practically no toxicity
